Earlier results, collected in patent publication US20250160636A1, “Mitigating Ocular Toxicity” (GlaxoSmithKline Intellectual Property Development Limited, priority 2022, published 2025).

Conditions: full list, wrapped over lines: blepharitis, conjunctivitis, keratitis/ulcerative keratitis with decreased visual acuity, and cheilitis

## Cetuximab
  Label mentions existence of (ocular toxicity issues): Label mentions existence of blepharitis, conjunctivitis, keratitis/ulcerative
